From patent US8524861B2, “Treatment of bacterial infections” (priority 2004, dated 2013)

Tested on: Pseudomonas aeruginosa (ATCC strain 9027)
Assay type: cell-based
Conditions: summary in description
Experimental: Bacterial Stocks—ATCC derived stock bacteria were obtained from Oxoid Limited. Pseudomonas aeruginosa (ATCC strain 9027) or Staphylococcus aureus (ATCC strain 6538P) were obtained in ‘Cultiloop’ format. Stocks were prepared by inoculating 20 ml of LB broth with a single Cultiloop, and incubating overnight at 37° C. Cells present after overnight incubation were harvested by removing larger aggregates by centrifugation (3000 g, 10 minutes), and withdrawing 16 ml of the supernatant, which was likely to contain mainly planktonic bacteria. To this, 4 ml of sterile glycerol was added (the latter having been sterilised by autoclaving). […]
The peptides were examined for antibacterial efficacy against Staphylococcus aureus. […] A vial of planktonic bacterial stock was thawed in a 37° C. incubator and diluted to the level previously determined which would produce log phase growth after overnight incubation (see above). […] After overnight growth, the concentration of bacteria in individual wells was assessed by measuring absorbance at 620 nm, in a microplate spectrophotometer. The average absorbance of wells for specific concentrations of peptides was calculated, and from this the percentage inhibition (relative to untreated wells) was also calculated and plotted against concentration (along with an estimate of error on that % inhibition). […]

Structure (SMILES): CC(C)C[C@H](NC(=O)[C@H](CC(C)C)NC(=O)[C@H](CCCNC(=N)N)NC(=O)[C@H](CCCCN)NC(=O)[C@H](CCCNC(=N)N)NC(=O)[C@H](CC(C)C)NC(=O)[C@H](CCCCN)NC(=O)[C@H](CCCNC(=N)N)NC(=O)[C@H](CC(C)C)NC(=O)[C@H](Cc1c[nH]cn1)NC(=O)[C@H](CO)NC(=O)[C@H](C)NC(=O)[C@H](CC(C)C)NC(=O)[C@H](CCCNC(=N)N)NC(=O)[C@@H](NC(=O)[C@H](CCCNC(=N)N)NC(=O)[C@H](CC(C)C)NC(=O)[C@H](CCC(=O)O)NC(=O)[C@H](CCC(=O)O)NC(=O)[C@@H](NC(=O)[C@H](CO)NC(=O)[C@@H](N)CCC(N)=O)[C@@H](C)O)C(C)C)C(N)=O [GIN 11]
- Effectiveness against Pseudomonadales, in particular P. aeruginosa, in words: particularly effective
